This note sets out measurements from ChEMBL document CHEMBL4229371, “Discovery of [1,2,4]triazolo[3,4-b][1,3,4]thiadiazole derivatives as novel, potent and selective c-Met kinase inhibitors: Synthesis, SAR study, and biological activity” (Eur J Med Chem, 2018).

The species named for assay [1] is Homo sapiens. In words: Selectivity for GST-tagged human c-MET kinase over GST-tagged human FGFR1.
For assay [2], the species on record is Homo sapiens. In words: Selectivity for GST-tagged human c-MET kinase over GST-tagged human FLT1.
The species entered for assay [3] is Homo sapiens. In words: Selectivity for GST-tagged human c-MET kinase over GST-tagged human RET.
The species entered for assay [4] is Homo sapiens. In words: Selectivity for GST-tagged human c-MET kinase over GST-tagged human RON.
For assay [5], the species on record is Homo sapiens. Briefly: Selectivity for GST-tagged human c-MET kinase over GST-tagged human EGFR.
The species entered for assay [6] is Homo sapiens. In words: Selectivity for GST-tagged human c-MET kinase over GST-tagged human PDGFRalpha.
Assay [7] is filed under the species Homo sapiens. Briefly: Selectivity for GST-tagged human c-MET kinase over GST-tagged human c-KIT.
The species named for assay [8] is Homo sapiens. Briefly: Selectivity for GST-tagged human c-MET kinase over GST-tagged human ABL1.
Assay [9] is filed under the species Homo sapiens. In words: Selectivity for GST-tagged human c-MET kinase over GST-tagged human TIE2.
The species entered for assay [10] is Homo sapiens. Briefly: Selectivity for GST-tagged human c-MET kinase over GST-tagged human AXL.
Assay [11] is filed under the species Homo sapiens. Briefly: Selectivity for GST-tagged human c-MET kinase over GST-tagged human KDR.
The species entered for assay [12] is Homo sapiens. In words: Selectivity for GST-tagged human c-MET kinase over GST-tagged human LCK.
Assay [13] is filed under the species Homo sapiens. In words: Selectivity for GST-tagged human c-MET kinase over GST-tagged human ALK.
The species entered for assay [14] is Homo sapiens. In words: Selectivity for GST-tagged human c-MET kinase over GST-tagged human TRKB.
For assay [15], the species on record is Homo sapiens. Briefly: Selectivity for GST-tagged human c-MET kinase over GST-tagged human TRKA.
Assay [16] is filed under the species Homo sapiens. In words: Selectivity index, ratio of IC50 for GST-tagged human FLT3 to IC50 for GST-tagged human c-MET kinase.

The structures appear in SMILES notation. Where only a bound is given, the exact number is not on record here.

Turning to `COc1ccc2c(OCc3nnc4sc(-c5cnn(C)c5)nn34)ccnc2c1`, the Selectivity ratio in [1], in assay [2], in assay [3], in [4], in [5] and in assay [6] was greater than 2500 throughout. In addition, the Selectivity ratio in assay [7], in assay [8], in assay [9], in [10], in assay [11] and in assay [12] was greater than 2500 each time. In addition, the Selectivity ratio in assay [13], in [14] and in assay [15] was greater than 2500 each time. The Ratio IC50 in [16] is greater than 650.
